Earlier results, collected in patent US4645774A, “Aminoethoxybenzylalcohol derivatives, process for their preparation and pharmaceutical compositions containing them” (Richter Gedeon Vegyeszeti Gyar Rt, priority 1982, dated 1987).

Tested on: CNS
Details: when administered in the effective dose; cited from earlier work

CCC1(c2ccccc2)C(=O)NC(=O)NC1=O [phenobarbital, reference compound]
side-effect in therapy: CNS (sedative, despiration-depressing) side-effect
